# Measured affinities in a library of Ab-95 light chain variants

Target peptide (SARS-CoV-2 spike, HR2 region): PDVDLGDISGINAS

Ab-95 is the parent antibody, in scFv form: VH, then three GGGGS repeats, then VL. The heavy chain is unchanged in all variants.
VH: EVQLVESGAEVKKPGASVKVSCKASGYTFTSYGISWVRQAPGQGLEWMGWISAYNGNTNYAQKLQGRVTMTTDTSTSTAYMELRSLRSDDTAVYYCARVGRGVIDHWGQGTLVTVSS
VL: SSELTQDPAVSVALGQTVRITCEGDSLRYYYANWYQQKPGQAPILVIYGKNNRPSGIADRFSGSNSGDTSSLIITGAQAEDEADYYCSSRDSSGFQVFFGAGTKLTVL

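The starting antibody came from a phage panning campaign against this peptide. Library AAYL52 holds single substitutions and randomly drawn double and triple substitutions in the CDRs. The assay is AlphaSeq: two haploid yeast populations carry antibody and antigen on their surface. The frequency of each diploid, read from paired DNA barcodes, reflects how well the two displayed proteins bind. Scores were corrected for input abundance and mapped to Kd with protein pairs of known affinity run in the same pool. There are three technical replicates.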

Substitutions are numbered in sequence along the VL above, starting at 1 (not Kabat).
This list gathers variants with a substitution at Y31 (VL, numbered from residue 1).
Values are log10 of the apparent Kd in nM; lower means stronger binding.
The mean shown is taken over the replicates in which the pair was detected.
"nd" marks a missing value. The strain was present, yet no cells mated with the target were sequenced in any replicate, which points to weak or no binding.
Background: pairings of library AAYL52 with three empty control strains gave a value in 28% of cases (median 3.91, 5th percentile 2.90). Values in that range, when seen in few replicates, are hard to tell from nonspecific mating.

For E23V+D25A+Y31T, the assay gave 2.49 (3 of 3 replicates). With Y31Q+K50V the result was 1.04 (3 of 3 replicates). Variant L27W+Y31G+N51P gave 4.46 (1 of 3 replicates). For Y31L, the assay gave 2.33 (3 of 3 replicates). Variant R28I+Y31T+N52E gave nd (0 of 3 replicates). For D25V+Y31Q+Q96P, the assay gave 1.84 (3 of 3 replicates). For Y31A+S55A+G94C, the assay gave 2.19 (3 of 3 replicates).

Variant L27D+Y31G+A32W showed 3.21 (3 of 3 replicates). With Y31W+S88P+S89M the result was 3.36 (3 of 3 replicates). Variant Y31Q+G49N+F98H showed 1.99 (3 of 3 replicates). Variant D25S+Y31F+P54I gave 2.28 (2 of 3 replicates). Variant Y31N+N52D+S55Y showed 0.98 (3 of 3 replicates). For Y31N+V97R+F98D, the assay gave 3.33 (2 of 3 replicates). Variant Y31F+A32Y+P54A gave 3.68 (2 of 3 replicates).

Variant Y31E+G94I+Q96Y showed nd (0 of 3 replicates). For G24P+R28N+Y31G, the assay gave 2.90 (3 of 3 replicates). For D25K+Y31E+S55V, the assay gave 1.08 (3 of 3 replicates). Variant Y31L+N51K+F98C showed nd (0 of 3 replicates). With G24E+Y31E+S55V the result was 3.38 (3 of 3 replicates). Variant Y31H+R53P+S92D gave 3.18 (2 of 3 replicates). For E23F+Y31C+K50Y, the assay gave 3.40 (3 of 3 replicates).

With Y31H+A32S the result was 2.28 (3 of 3 replicates). For Y31I, the assay gave 3.09 (3 of 3 replicates). Variant G24F+Y31Q+Q96E gave 2.90 (3 of 3 replicates). For Y31I+A32I, the assay gave 4.36 (3 of 3 replicates). For Y31C+V97E+F98P, the assay gave 3.31 (3 of 3 replicates). With Y31V+R53N+V97G the result was 5.13 (1 of 3 replicates). With L27R+Y31R+N52F the result was 3.07 (2 of 3 replicates).

Variant Y31E+N51P+N52A showed 4.34 (3 of 3 replicates). Variant L27W+Y31E showed 2.61 (2 of 3 replicates). With S26E+Y31L+F98V the result was 4.10 (1 of 3 replicates). For Y31D+P54A, the assay gave 0.24 (3 of 3 replicates). For L27D+R28A+Y31E, the assay gave 2.99 (3 of 3 replicates). Variant Y31K+G49F+V97H gave 4.42 (2 of 3 replicates). For L27R+Y31S+N51S, the assay gave 3.59 (2 of 3 replicates).

With E23A+Y31W+F95C the result was 3.44 (3 of 3 replicates). With Y30E+Y31E+G94E the result was 1.92 (3 of 3 replicates). With S26F+Y29G+Y31K the result was 2.75 (3 of 3 replicates). For Y31M+S88C+Q96V, the assay gave 2.75 (3 of 3 replicates). Variant Y30N+Y31Q+N52F gave 0.41 (3 of 3 replicates). For E23G+S26N+Y31V, the assay gave 4.70 (1 of 3 replicates). Variant Y31E+P54M+D91R gave 1.51 (3 of 3 replicates).

Variant Y31Q+S88F+R90G gave 1.64 (3 of 3 replicates). Variant S26R+Y31V+D91I showed nd (0 of 3 replicates). With Y29F+Y31N the result was 1.34 (3 of 3 replicates). Variant Y31E+S55C+G94Q gave 2.11 (3 of 3 replicates). With G24W+Y31D+N52F the result was 3.45 (2 of 3 replicates). Variant Y31D+F95K gave 1.53 (3 of 3 replicates). For S26M+Y31H, the assay gave 3.02 (3 of 3 replicates).

Variant Y31C+P54C+S89W showed 3.39 (3 of 3 replicates). For Y31R+P54Y+F95G, the assay gave 4.44 (1 of 3 replicates).

The last 5 entries again:

changes	mean log10 Kd (nM)	detected
G24W+Y31D+N52F	3.45	2 of 3
Y31D+F95K	1.53	3 of 3
S26M+Y31H	3.02	3 of 3
Y31C+P54C+S89W	3.39	3 of 3
Y31R+P54Y+F95G	4.44	1 of 3

Parent in this assay: reference entry 2.31, copy in this library 2.25.

Values reported by Engelhart et al. 2022, doi:10.1038/s41597-022-01779-4 (FLAb copy).